According to patent US9670210B2, “Cyclopropylamines as LSD1 inhibitors” (Incyte Corporation, priority 2014, dated 2017):

Target: LSD-1 enzyme (Homo sapiens (Human), UniProt O60341)

Q: With `COCC1(CN[C@@H]2C[C@H]2c2ccccc2)CCN(CC2(C(=O)O)CCC2)CC1` [Example 36, 1-{[4-(methoxymethyl)-4-({[(1R,2S)-2-phenylcyclopropyl]amino}methyl)piperidin-1-yl]methyl}cyclobutanecarboxylic acid] as the compound, how does the IC50 read?
A: < 100 nM
